Values quoted from earlier work as cited in publication PMC9966187.

Tests used:
[1] = molecular target: dodecapeptide …

For concanavalin A (from UniProt P02866), the Kd [1] is listed as 46 µM, the Kd (hexapeptide MYWYPY) is listed as 800 µM and the Kd (octavalent YRYPY peptide) is listed as 0.001 µM.
